Data published in patent publication US5196446A (priority 1991, dated 1993).

The chains behind the UniProt entries cited, without tags or fusion partners. Residues count along the entry.
UniProt P00533, 25-1210: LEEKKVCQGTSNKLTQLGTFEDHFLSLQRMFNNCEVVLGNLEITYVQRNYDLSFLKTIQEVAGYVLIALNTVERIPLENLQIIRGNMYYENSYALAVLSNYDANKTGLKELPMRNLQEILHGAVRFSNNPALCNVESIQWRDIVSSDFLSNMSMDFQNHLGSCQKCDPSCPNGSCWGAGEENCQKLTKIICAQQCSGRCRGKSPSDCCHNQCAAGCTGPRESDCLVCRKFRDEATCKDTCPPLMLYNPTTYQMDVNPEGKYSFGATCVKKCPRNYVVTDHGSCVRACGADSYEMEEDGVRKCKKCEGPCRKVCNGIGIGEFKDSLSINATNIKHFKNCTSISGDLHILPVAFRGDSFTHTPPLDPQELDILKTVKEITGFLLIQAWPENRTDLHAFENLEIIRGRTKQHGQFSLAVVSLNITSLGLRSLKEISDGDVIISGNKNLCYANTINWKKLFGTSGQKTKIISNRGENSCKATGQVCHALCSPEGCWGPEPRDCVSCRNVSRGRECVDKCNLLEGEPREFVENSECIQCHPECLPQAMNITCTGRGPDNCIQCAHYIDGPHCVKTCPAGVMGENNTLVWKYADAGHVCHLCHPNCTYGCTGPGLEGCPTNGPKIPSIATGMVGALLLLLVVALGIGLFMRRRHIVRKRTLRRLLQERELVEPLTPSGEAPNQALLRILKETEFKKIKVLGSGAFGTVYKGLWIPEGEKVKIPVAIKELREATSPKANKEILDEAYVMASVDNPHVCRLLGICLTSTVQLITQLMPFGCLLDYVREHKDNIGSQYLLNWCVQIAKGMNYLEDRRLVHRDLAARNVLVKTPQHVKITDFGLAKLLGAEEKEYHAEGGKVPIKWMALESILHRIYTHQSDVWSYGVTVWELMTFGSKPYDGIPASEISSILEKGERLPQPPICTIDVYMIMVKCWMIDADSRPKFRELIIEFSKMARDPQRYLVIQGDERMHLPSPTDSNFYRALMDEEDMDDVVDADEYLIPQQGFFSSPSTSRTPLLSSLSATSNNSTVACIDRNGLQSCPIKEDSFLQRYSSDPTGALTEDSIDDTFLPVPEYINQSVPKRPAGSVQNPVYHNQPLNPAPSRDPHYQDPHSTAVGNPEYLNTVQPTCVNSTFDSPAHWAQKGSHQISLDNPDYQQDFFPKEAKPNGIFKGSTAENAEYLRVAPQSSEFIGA

Target: T1, EGF receptor tyrosine kinase (Homo sapiens, UniProt P00533)
T1 construct: WGA-purified EGF receptor from A431 cells; endogenous in cells; host or cells: A431 cells (solubilized, receptor enriched on WGA-agarose)
Assay type: biochemical
Details: read-out: IC50 (concentration of inhibitor required to inhibit 50% of polyGAT phosphorylation)

N#CC(C#N)=Cc1ncc[nH]1 [Example 1, 2-Imidazolidene malononitrile] showed an IC50 of 532 µM.
